Measured values reported in patent US7078189B2, “Preparing membrane receptors from extracellular baciloviruses” (priority 1997, dated 2006).

Chains of the proteins cited; added tags and fusions are not shown.
UniProt P21728, whole entry: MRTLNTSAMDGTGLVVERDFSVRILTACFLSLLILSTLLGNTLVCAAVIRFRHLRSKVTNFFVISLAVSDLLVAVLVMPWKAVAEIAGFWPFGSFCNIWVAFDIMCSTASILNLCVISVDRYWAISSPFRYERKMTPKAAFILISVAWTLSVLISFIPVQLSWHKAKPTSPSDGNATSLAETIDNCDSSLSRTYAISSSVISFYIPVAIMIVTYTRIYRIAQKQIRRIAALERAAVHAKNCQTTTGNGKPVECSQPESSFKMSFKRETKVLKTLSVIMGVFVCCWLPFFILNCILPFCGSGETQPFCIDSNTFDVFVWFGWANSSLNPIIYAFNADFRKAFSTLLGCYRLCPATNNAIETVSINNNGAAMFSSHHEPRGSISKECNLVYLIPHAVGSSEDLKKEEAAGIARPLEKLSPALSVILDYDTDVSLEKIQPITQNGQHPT

Molecular target: D1-dopaminergic receptor (Homo sapiens, UniProt P21728)
Assay: Saturation assay of D1-dopaminergic receptor (D1-R) expressed in viral particles
Details: D1 in extracellular baculoviruses

Kd (0.02-3 nM [125I]-R(+)SCH-23390, non-specific binding with 10 μM haloperidol): 0.118 ± 0.063 nM
BMax ([125I]-SCH23390 saturation): 5.21 ± 0.84 pmol/mg of protein
Substance: [^125I]-R(+)SCH-23390 [[^125I]-SCH23390]
